From patent US20260382581A1, “COMPOSITIONS COMPRISING CYTISINE IN THE TREATMENT AND/OR PREVENTION OF ADDICTION IN SUBJECTS IN NEED THEREOF” (published 2026) come the findings set out here.

Series [1] can be described thus: ORCA-3: abnormal laboratory adverse events related to study drug. An excerpt:
Routine laboratory safety samples will be analyzed at screening and at clinic visits as identified in Table 15 for each subject by a central laboratory. A decision regarding whether a result outside the reference range is of clinical significance or not will be made by an Investigator, and the report will be annotated accordingly. Clinically significant abnormalities occurring during the study will be recorded on the AE page. The reference ranges for laboratory parameters will also be entered in the database and filed in the Investigator site file.
Hematology: Hemoglobin, red blood cells, white blood cells, neutrophils, lymphocytes, monocytes, eosinophils, basophils, and platelets.
Chemistry: Total protein, albumin, total bilirubin, SGPT (ALT), SGOT (AST), alkaline phosphatase, glucose, sodium, potassium, calcium, creatinine, and urea.

A short description of series [2]: ORCA-1: expired carbon monoxide (CO) levels. Conditions: cytisine-treated arms, regardless of schedule. How it is done: Expired carbon monoxide (CO) levels were also measured during this study as an objective biochemical marker for reduction in smoking. In all cytisine-treated arms, the reduction in carbon monoxide (CO) (55% to 62% reduction) was consistent with the reported reduction in cigarettes smoked (e.g., a range of 25% to 32% as Cigarette Scores represents a 75% to 68% reduction in cigarettes smoking). Conversely, in the placebo-treated arms, the reported reductions in the number of cigarettes smoked (e.g., 41% as the Cigarette Score, representing a 59% reduction in cigarettes smoked) was not paralleled by a corresponding reduction in carbon monoxide (CO) at only 29%.
Carbon monoxide (CO) levels (ppm) were assessed during the study at screening, baseline, end of study treatment intervention (Week 4), and weekly through Week 8 (FIG. 9). The screening and baseline visits' carbon monoxide (CO) means were approximately equal for all arms. At Week 4, significant reductions in carbon monoxide (CO) levels for all subjects treated in cytisine-treated arms, regardless of schedule, were observed. During the follow-up period (with only behavioral support) from Week 4 through Week 8, the carbon monoxide (CO) means in the pooled placebo arm were approximately constant, although somewhat lower than the means before the start of study treatment intervention.

For series [3], the system named is adult smokers. The series can be described thus: ORCA-2: cigarette craving, Brief Questionnaire of Smoking Urges (QSU-brief). The note with it: 6 or 12 weeks, compared to placebo. An excerpt:
The study had two primary endpoints. They assessed whether cytisinicline produced greater biochemically-confirmed continuous smoking abstinence when compared to placebo during the last 4 weeks of the 6-week treatment (weeks 3 to 6 for Arms B vs. A) and the 12-week treatment (weeks 9 to 12 for Arms C vs. A). Study success was defined as either primary endpoint meeting statistical criterion. The secondary outcome measures were verified continuous cigarette abstinence to week 24 (weeks 3 to 24 for Arms B vs. A; weeks 9 to 24 for Arms C vs. A). A third secondary outcome measure compared the risk of relapse to smoking between weeks 6 and 24 among participants assigned to cytisinicline who achieved abstinence by week 6; these individuals were either switched to placebo at week 6 (Arm B) or continued cytisinicline to week 12 (Arm C). […]
The mean total cigarette craving score, using the QSU-brief, declined more rapidly between baseline and week 6 among participants who received cytisinicline for 6 or 12 weeks, compared to placebo (FIG. 38). During the first 6 weeks of treatment, mean cigarette craving score, as measured by the Brief Questionnaire of Smoking Urges (QSU-brief), declined more among patients randomized to cytisinicline for 6 weeks and 12 weeks than among those randomized to placebo. […]

On to `O=c1cccc2n1C[C@@H]1CNC[C@H]2C1`, for which, in series [1] (start Day 29, 129 IU/L at AE, dose not changed), the “Elevated AST Level: severity” value is given as “Mild”. Besides, the “Elevated ALT Level: severity” value in series [1] (start Day 29, 195 IU/L at AE, dose not changed) is given as “Mild”. Besides, in series [1] (start Day 29, dose not changed), the “Elevated ALT Level: outcome of adverse event” value is “Recovered/Resolved” and the “Elevated AST Level: outcome of adverse event” value is listed as “Recovered/Resolved”. For the same molecule, the “Elevated ALT Level: parameter value at AE” value in series [1] (start Day 29, value at screening 25 IU/L, dose not changed) is on record as 195 IU/L. In addition, in series [1] (start Day 29, value at screening 29 IU/L, dose not changed), the “Elevated AST Level: parameter value at AE” value amounted to 129 IU/L. Moreover, in series [1] (start Day 85, value at screening 5.1 × 10^9/L), the “Low White Blood Count: parameter value at AE” value amounted to 2.5e+09 L⁻¹. Also, in series [1] (start Day 169, 82 IU/L at AE), the “Elevated ALT: severity” value is on record as “Moderate”. Besides, the “Elevated ALT: parameter value at AE” value in series [1] (start Day 169, value at screening 50 IU/L) turned out to be 82 IU/L. Also, the “CO levels at Week 4” value in series [2] is on record as “significant reductions in carbon monoxide (CO) levels”. Besides, the “mean total cigarette craving score, baseline to week 6” value in series [3] is “declined more rapidly between baseline and week 6”.
